{
  "source": "patent US8349899B1",
  "about": "(Arrowhead Center, Inc., priority 2008, dated 2013)",
  "biological_target": "T1, recombinant human EG5 motor domain (Homo sapiens, UniProt P52732)",
  "T1 construct": "recombinant human EG5 motor domain; purchased Cytoskeleton, Inc",
  "T1 sequence (P52732 18-359 limits assumed)": "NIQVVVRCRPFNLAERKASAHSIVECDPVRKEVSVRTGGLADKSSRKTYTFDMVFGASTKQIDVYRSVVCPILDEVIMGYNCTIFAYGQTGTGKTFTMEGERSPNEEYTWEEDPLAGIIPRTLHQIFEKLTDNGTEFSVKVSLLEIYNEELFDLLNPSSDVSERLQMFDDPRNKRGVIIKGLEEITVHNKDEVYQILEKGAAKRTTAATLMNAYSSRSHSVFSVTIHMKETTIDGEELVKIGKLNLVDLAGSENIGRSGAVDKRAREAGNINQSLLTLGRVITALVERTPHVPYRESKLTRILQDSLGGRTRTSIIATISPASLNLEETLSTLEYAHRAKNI",
  "assay": "microtubule-activated Eg5 ATPase assay (Cytoskeleton, Inc)",
  "assay_type": "biochemical",
  "conditions": "microtubule-activated ATPase activity of recombinant human EG5 motor domain",
  "data": [
    {"substance": "(R)-2-amino-3-(((4-methoxyphenyl)diphenylmethyl)thio)propanamide [Compound 3.9]", "values": [
      {"measurement": "IC50", "result": "> 100", "unit": "µM"}
    ]}
  ]
}
